# Only a part is listed here, and it is no random draw. Activity calls are given as the source filed them. No stated cut-off is given here; in the data, active means binding response below about 67% or above about 130%; inconclusive means no clear call, values can overlap the other calls; inactive means in between.
# Target: Mitogen-activated protein kinase kinase kinase 2 (Homo sapiens) (UniProt Q9Y2U5)
# Assay: modulators of MEK5 binding to wildtype MEKK2, primary screen, biochemical, multiplex bead flow cytometry, Alexa488-MEK5 (AID 1531)
# Details: Alexa488-MEK5 binding to MEKK2 WT, at 10 µM, actives lie on both sides
row,Compound,binding response (% of control)
1,CCOP1(=S)c2c(C)nn(CCC#N)c2N=C(c2ccccc2F)N1C (stereo unspecified),inactive: 113%
2,CCOP(=O)(Nc1cccc2ccccc12)OCC,inactive: 94%
3,COc1cc(C2NCCC3(OCCO3)C2(C)C)cc(OC)c1OC (stereo unspecified),inactive: 98%
4,CCCOP(=S)(Nc1nc(N)cc(=O)[nH]1)OCCC,inactive: 65%
5,Nc1cccc2c([As](=O)(O)O)cccc12,inactive: 101%
6,Cc1ccc(NCCc2c([N+](=O)[O-])cc([N+](=O)[O-])cc2[N+](=O)[O-])cc1,inactive: 91%
7,O=[As](O)(c1cccc(O)c1)c1cccc(O)c1,inactive: 91%
8,Cc1cccc(OCC(=O)OC2CN3CCC2CC3)c1 (stereo unspecified),inactive: 91%
9,CS(=O)(=O)c1ccc(Cl)c(NC(=O)COC(=O)C(O)(c2ccccc2)c2ccccc2)c1,inactive: 109%
10,COc1cc(C(=O)NCC2(N3CCOCC3)CCCCC2)cc(Cl)c1OC(C)C,inactive: 114%
11,O=[As](O)(O)c1cccnc1,active: -4%
12,O=C(OC1CN2CCC1CC2)c1ccc(Cl)cc1 (stereo unspecified),inactive: 107%
13,COc1ccc(N/C(=N/P(=O)(N2CCOCC2)N2CCOCC2)N2CCOCC2)cc1,inactive: 108%
14,COc1cc(I)ccc1[As](=O)(O)O,inactive: 98%
15,COc1ccc2nc(NP(=O)(c3ccccc3)c3ccccc3)sc2c1,inactive: 105%
16,Cc1cc(=O)[nH]c(N[N+](=O)[O-])n1,inactive: 95%
17,O=C(OC1CN2CCC1CC2)C12CC3CC(CC(C3)C1)C2 (stereo unspecified),inactive: 98%
18,Cc1c2c(nc3ccccc13)SC(C(Cl)Cl)C2 (stereo unspecified),inactive: 100%
19,O=[N+]([O-])c1cc([N+](=O)[O-])c(-c2ccn[nH]2)s1,inactive: 93%
20,CCN(CC)C(=S)SC(NC=O)C(Cl)(Cl)Cl (stereo unspecified),inactive: 106%
21,CC(C)NC(=O)NP(=O)(Oc1ccccc1)Oc1ccccc1,inactive: 101%
22,CC(C)c1ccc(OP(=O)(Nc2ccccn2)Oc2ccccc2F)cc1 (stereo unspecified),inactive: 92%
23,ClCCSc1nnc(-c2cccnc2)o1,inactive: 95%

row,Compound,binding response (% of control)
1,Cc1ccc2nc3c(c(C)c2c1)CC(C(Cl)Cl)S3 (stereo unspecified),inactive: 109%
2,Cc1ccc(OP(=O)(Nc2ccc([N+](=O)[O-])cn2)Oc2ccc(C)cc2)cc1,inactive: 89%
3,C[As](=O)(O)c1cccc(C(=O)O)c1,inactive: 64%
4,O=[As](O)(c1ccc(O)cc1)c1ccccc1O,inactive: 112%
5,O=[N+]([O-])c1ccc(Nc2ccc(Oc3ccc([N+](=O)[O-])cc3[N+](=O)[O-])cc2)c([N+](=O)[O-])c1,inactive: 99%
6,O=P(Nc1ccccn1)(c1cccc2ccccc12)c1cccc2ccccc12,inactive: 99%
7,Cc1cc(SC(NC=O)C(Cl)(Cl)Cl)ncn1 (stereo unspecified),inactive: 99%
8,CCOC(=O)Nc1cccc([As](=O)(O)O)c1,inactive: 97%
9,Cc1cc(SC(NC(=O)c2ccccc2)C(Cl)(Cl)Cl)nc(C(C)C)n1 (stereo unspecified),inactive: 130%
10,CCCCOc1ccc(C(=O)NCC2(N3CCCCC3)CCCCC2)cc1OC,inactive: 102%
11,CCOC(=O)Nc1ccc([As](=O)(O)O)c(O)c1,inactive: 106%
12,CCC(C)N(CC(C)C)C(=S)SC(NC(C)=O)C(Cl)(Cl)Cl (stereo unspecified),inactive: 93%
13,CCOC(=O)c1ccc(NC(=O)C(C)(CCl)SC)cc1 (stereo unspecified),inactive: 97%
14,O=C(OC1CN2CCC1CC2)c1cccc([N+](=O)[O-])c1 (stereo unspecified),inactive: 106%
15,O=C(Nc1ccncc1[N+](=O)[O-])c1ccc([N+](=O)[O-])cc1[N+](=O)[O-],inactive: 109%
16,COP1(=S)c2c(C)nn(CCC#N)c2N=C(c2ccc(F)cc2)N1C (stereo unspecified),inactive: 97%
17,CN(C)C(=O)OCCc1n(C)cc[n+]1C,inactive: 96%
18,CC(C)=N/N=C(\N)N[N+](=O)[O-],inactive: 92%
19,CC1CCN(C(=O)Oc2c(Cl)cc(Cl)c3cccnc23)CC1,inactive: 95%
20,C[N+]1=C2C=CC=CC=C2SC12C([N+](=O)[O-])=CC([N+](=O)[O-])=C[C-]2[N+](=O)[O-] (stereo unspecified),active: 60% [inhibitor]
21,Nc1ccc([As](=O)(O)c2ccc(N)cc2)cc1,inactive: 100%
22,CCN(/C(=N/P(=O)(N1CCOCC1)N1CCOCC1)N1CCOCC1)c1ccc(OC)cc1,inactive: 111%
23,O=[N+]([O-])c1cccc2n[nH]nc12,inactive: 100%

row,Compound,binding response (% of control)
1,CC(=O)N1C2C3N(C(C)=O)C1C1N(C(C)=O)C(C(N1C(C)=O)N3C(C)=O)N2C(C)=O,inactive: 105%
2,CCc1nc2c(n1)c1c(non1O)c1c2no[n+]1[O-],inactive: 102%
3,O=[N+]([O-])c1cc([N+](=O)[O-])c(CCNc2ccccc2)c([N+](=O)[O-])c1,inactive: 99%
4,Cc1ccc(NP(=O)(Oc2ccccc2)Oc2ccccc2)nc1,inactive: 80%
5,COc1ccc(C2=NCC(CBr)S2)cc1 (stereo unspecified),inactive: 114%
6,O=[N+]([O-])c1cccc(NC2=NCC(CBr)S2)c1 (stereo unspecified),inactive: 96%
7,O=C(O)CNc1ccc([As](=O)(O)O)cc1,inactive: 96%
8,CC(C)(C)C(=O)NC(Sc1ccncn1)C(Cl)(Cl)Cl (stereo unspecified),inactive: 92%
9,O=[N+]([O-])c1ncn(CCn2ncnc2[N+](=O)[O-])n1,inactive: 101%
10,O=C(Nc1cc([As](=O)(O)O)ccc1O)c1ccccc1,inactive: 95%
11,CCN(N=Nc1nonc1N)c1nonc1N,inactive: 102%
12,Nc1cccc2ccc([As](=O)(O)O)cc12,inactive: 98%
13,O=[N+]([O-])c1cc([N+](=O)[O-])c(CCN2CCOCC2)c([N+](=O)[O-])c1,inactive: 102%
14,Cc1ccc(NP(=O)(Oc2ccccc2F)Oc2ccccc2F)nc1,inactive: 103%
15,CN(C(=O)Cc1ccc(Cl)c(Cl)c1)[C@H]1CCCC[C@@H]1N1CCCC1,inactive: 115%
16,CCOP(=O)(Nc1ccccc1)OCC,inactive: 104%
17,Cc1cc(SC(NC(=O)c2ccc(F)cc2)C(Cl)(Cl)Cl)ncn1 (stereo unspecified),inactive: 115%
18,O=C(O)c1ccccc1[As](=O)(O)O,inactive: 98%
19,CC(=O)Nc1ccc([As](=O)(O)O)cc1,inactive: 98%
20,O=P(Nc1nc2ccc(Cl)cc2s1)(c1ccccc1)c1ccccc1,inactive: 94%
21,CC(C)CC(=O)NC(Sc1ccc(Cl)cc1)C(Cl)(Cl)Cl (stereo unspecified),inactive: 87%
22,Nc1cc(N)c2nonc2c1[N+](=O)[O-],inactive: 108%
23,Cc1c2non([O-])c-2c(C)[n+](=O)[n+]1[O-],inactive: 92%

row,Compound,binding response (% of control)
1,O=C(NC(Sc1ccncn1)C(Cl)(Cl)Cl)c1ccccc1 (stereo unspecified),inactive: 99%
2,Oc1ccccc1CNc1ccccn1,inactive: 99%
3,Cc1ccc(OP(=O)(Nc2nccs2)Oc2ccc(C)cc2)cc1,inactive: 95%
4,COc1ccccc1OP(=O)(Nc1ccc(C)cn1)Oc1ccccc1OC,inactive: 93%
5,Clc1ccc(Cl)c(NC2=NCC(CBr)S2)c1 (stereo unspecified),inactive: 104%
6,CN1CCCC(OC(=O)C(c2ccccc2)c2ccccc2)C1 (stereo unspecified),inactive: 88%
7,NC(=O)c1cc([N+](=O)[O-])cc([N+](=O)[O-])c1N,inactive: 86%
8,CC(=O)Nc1ccc(Oc2c([N+](=O)[O-])cc([N+](=O)[O-])cc2[N+](=O)[O-])cc1,inactive: 110%
9,CC(=O)Nc1ccc([As](=O)(O)O)c(O)c1,inactive: 92%
10,CC(=O)c1ccc(N2CC2c2ccncc2)cc1 (stereo unspecified),inactive: 99%
11,C[C@@H]1C=CCP(=O)(Oc2ccccc2)O1 (stereo partly specified),inactive: 106%
12,C[C@H]1OP(=O)(Oc2ccccc2)C[C@@H]2O[C@@H]21 (stereo partly specified),inactive: 102%
13,CC(C)(C)C(=O)NC(Sc1ccccc1)C(Cl)(Cl)Cl (stereo unspecified),inactive: 86%
14,CCOc1ccc(C2=NCC(CBr)S2)cc1 (stereo unspecified),inactive: 107%
15,O=P1(Nc2nc3ccc(Cl)cc3s2)COc2ccccc2O1 (stereo unspecified),inactive: 102%
16,CN(C)C(=O)Oc1noc2ccccc12,inactive: 96%
17,O=c1c2cc([N+](=O)[O-])ccc2[nH]c2c([N+](=O)[O-])cc([N+](=O)[O-])cc12,inactive: 81%
18,Cc1ccccc1OP(=O)(Nc1ccccn1)Oc1ccccc1C,inactive: 88%
19,Cc1ccc(OP(=O)(Nc2ccccn2)Oc2ccc(C)cc2)cc1,inactive: 86%
20,CC(=O)NC(SC(=S)N(CC(C)C)CC(C)C)C(Cl)(Cl)Cl (stereo unspecified),inactive: 103%
21,COC(=O)c1cc2c(s1)N=C(c1ccccc1)N(C)P2(=O)N1CCOCC1 (stereo unspecified),inactive: 110%
22,CCC(=O)N1C2C3N(C(=O)CC)C1C1N(C(=O)CC)C(C(N1C(=O)CC)N3C(=O)CC)N2C(=O)CC,inactive: 107%
23,O=C(OC1CN2CCC1CC2)c1ccccc1 (stereo unspecified),inactive: 100%

row,Compound,binding response (% of control)
1,CCNC(=S)/N=C(\N)N[N+](=O)[O-],inactive: 104%
2,O=C(NC1CCS(=O)(=O)C1)NP(=S)(Oc1ccccc1)Oc1ccccc1 (stereo unspecified),inactive: 100%
3,CCOC(=O)NC(Sc1ccccc1)C(Cl)(Cl)Cl (stereo unspecified),inactive: 101%
4,Cc1ccc(NP(=O)(Oc2cccc(C)c2)Oc2cccc(C)c2)nc1,inactive: 90%
5,c1ccc(-c2nn[nH]n2)c(-c2nn[nH]n2)c1,inactive: 82%
6,Nc1ccc([As](=O)(O)c2ccc([N+](=O)[O-])cc2)cc1,inactive: 101%
7,C(Cc1nn[nH]n1)Cc1nn[nH]n1,inactive: 102%
8,O=C(OC1CN2CCC1CC2)c1cccc(Cl)c1 (stereo unspecified),inactive: 109%
9,O=[N+]([O-])c1ccc(O)c(/C=N/Nc2ccc([N+](=O)[O-])cc2[N+](=O)[O-])c1,inactive: 99%
10,O=[N+]([O-])c1ncn(CCn2cnc([N+](=O)[O-])n2)n1,inactive: 95%
11,CC(=O)NC(SC(=S)N(C)C)C(Cl)(Cl)Cl (stereo unspecified),inactive: 95%
12,O=[As](O)(c1ccccc1)c1ccc(O)cc1,inactive: 95%
13,C[C@H]1OP(=O)(Oc2ccccc2)[C@H](O)[C@H](O)[C@H]1N=[N+]=[N-] (stereo partly specified),inactive: 102%
14,O=P(Nc1nc2ccccc2s1)(c1ccccc1)c1ccccc1,inactive: 104%
15,O=P(Nc1ccccn1)(c1ccc(Br)cc1)c1ccc(Br)cc1,inactive: 99%
16,CN(C)C1(CNC(=O)c2ccc(Cl)c(S(N)(=O)=O)c2)CCCCC1,inactive: 105%
17,c1nnnn1CCn1cnnn1,inactive: 110%
18,CC(C)C(=O)NC(Sc1ccccc1)C(Cl)(Cl)Cl (stereo unspecified),inactive: 107%
19,O=P(Nc1nccs1)(c1ccccc1)c1ccccc1,inactive: 103%

# Reference: PubChem BioAssay AID1531 (NMMLSC, 2009)
